Bioassay records (PubChem BioAssay)
Yeast UUG start = modulators of start codon recognition fidelity in yeast; S. cerevisiae UUG-firefly luciferase reporter, luminescence/redox ratio; AID 602363; 350,000 tested, 0.13% active; activity score, % at 18.7 µM;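 active = replicate mean at a twofold rise or more, about +100% in these data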;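 also: firefly luciferase made from a UUG start codon reports start codon fidelity; reporter light over untreated wells divided by growth signal over untreated wells; some hits fall short of that in this replicate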
CFTR F508del cor = F508del CFTR correction, initial screen, CFBE line, single point; AID 720511, 2013; activity (quench increase), % at 7.58 µM; 350,000 tested, 0.36% active; CFBE cells, YFP halide quenching; stimulated with forskolin plus potentiator P3; % fluorescence drop versus neutral controls;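 active = mean added fluorescence quench of at least 8% versus neutral control, with both replicates also reaching 8%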;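 also: cells transiently co-express mutant CFTR-F508del with the halide-sensitive YFP; corrector assay measuring rescue of mutant channel to the surface after 24 h compound exposure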
PglD DTNB = C. jejuni PglD acetyltransferase inhibitors, primary screen, biochemical, DTNB colorimetric, single point | purified PglD enzyme, DTNB colorimetric CoA detection | inhibition, % at 12.5 µM | 360,000 tested, 0.098% active | AID 602405, 2012; in the data active = inhibition above about 16%, passing the limit was not always enough
miR122 inh = miR-122 Renilla sensor signal increase in Huh7, primary screen, miR-122 inhibitor project, cell-based, single point, plate reader; Huh7 miR-122 Renilla luciferase sensor, 48 h; neutral wells = 0, positive control = 100; activation (reporter increase), % at 12.5 µM; 340,000 tested, 0.3% active; AID 602342, 2012;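 active = mean replicate activation score at least 90 and every replicate individually at or above 90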;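 also: higher luciferase means less miR-122 activity so hits act as miR-122 inhibitors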
EWS-Fli block = EWS/Fli-driven NR0B1 reporter inhibitors, primary screen, A673 cells, NR0B1 luciferase, luminescence, MLPCN library; inhibition, % at 12.6 µM; 350,000 tested, 0.67% active; viability-normalised;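 active = mean inhibition of at least 50% after viability correction, with every replicate also passing that limit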;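 also: firefly luciferase signal divided by Alamar Blue viability fluorescence both relative to DMSO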
LGR2 antag = inhibitors of bursicon-induced LGR2 CRE-luciferase signal, primary screen, cell-based, HEK293, CRE-luciferase reporter, bursicon stimulation; bursicon-stimulated, 4 h; inhibition, % at 9.99 µM; 380,000 tested, 0.35% active;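 active = drop in luminescence signal, shown as inhibition above about 50% in the replicate tests, limit read from the data, passing the limit was not always enough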;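 also: agonist challenge used bursicon conditioned medium at about half maximal strength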
PglD confirm = PglD acetyltransferase inhibitors, confirmation, biochemical, DTNB absorbance, single point, cherry-picked samples | shares compounds with PglD DTNB | AID 743156, 2013 | Purified C. jejuni PglD, DTNB absorbance 412 nm | inhibition, % at 20 µM | 320 tested, under 10 active;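 active = mean inhibition across replicates of at least 20% with every single replicate also at 20% or more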;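 also: initial rate of CoA release by acetyl transfer from AcCoA to the UDP-4-amino sugar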
DNA binding = DNA binders by acridine orange displacement, dose response, counter-screen for EWS/Fli inhibitor project, biochemical, fluorescence polarization, cherry-pick. shares compounds with EWS-Fli block. AC35, µM (doses to about 68 µM). AID 720586, 2013. 640 tested, 2% active. salmon sperm DNA acridine orange fluorescence polarization;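 active = fitted curve reaches a 35% signal fall AC35 below twice the sample's top valid tested dose, actives reach about 48 µM in these data; inactive = the rest, including activity in the rising direction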;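 also: lower polarization ratio signals compound binding to DNA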
Numbers stand for hits; - = inactive; . = not tested or not shown; ! = a repeat was not active. An excerpt weighted towards active compounds, which were near 1.3% of everything screened.

SMILES	Yeast UUG start	CFTR F508del cor	PglD DTNB	miR122 inh	EWS-Fli block	LGR2 antag	PglD confirm	others
CCC(Sc1nc2cc(OC)c(OC)cc2c(=O)n1Cc1ccc(OC)cc1)C(=O)NCCOC (configuration not stated)	.	-	.	.	-	-	.
C=C(C)Cn1c2ccc(NC(=O)NCc3ccccc3)cc2c(=O)n1C	-	-	20	-	-	-	-
C=C(C)Cn1c2ccc(NC(=O)NCC)cc2c(=O)n1C	-	-	-	-	-	-	.
O=C(O)CSc1cc(C(=O)c2ccccc2O)cn2c(=O)c3c4c(sc3nc12)CCCC4	-	-	22	-	-	-	-
CCCCOc1ccc(CC(=O)NCC(=O)O)cc1	-	.	23	-	.	-	-
O=C(O)/C(=C\c1ccc(Br)cc1)NC(=O)c1cccs1	-	-	25	-	-	-	-
O=C(N/C(=C/c1ccc(Br)cc1)C(=O)N1CCCC1)c1cccs1	.	-	.	.	-	-	.
CC(=O)c1ccc(OCCCC(=O)Nc2cccc(S(=O)(=O)N3CCOCC3)c2)cc1	-	-	-	.	-	-	.
O=C(CCCOc1ccccc1)Nc1cccc(S(=O)(=O)N2CCOCC2)c1	-	-	21	-	-	-	-
COc1ccc(-n2ccnc2)cc1	-	-	37	.	-	-	-
c1ccc(COc2ncnc3c2ncn3CCCNCc2cccs2)cc1	-	-	28	-	-	-	-
CCCCn1c(C)cc2cc(O)ccc21	-	.	-	-	.	.	.
O=C(COC(=O)CCc1nc2ccccc2n1-c1ccccc1)Nc1cccc(Cl)c1	-	.	29	-	.	-	-
O=C(NC1CCCC1)N1CC(=O)N2[C@H](CO)[C@@H](c3ccc(-c4ccc(F)cc4)cc3)[C@H]2C1	.	-	.	.	.	-	.
COC(=O)C1CSC(C(=O)OC)N1C(=O)CN1CCN(c2ccc(OC)cc2)CC1 (configuration not stated)	-	-	59	-	-	-	-
COc1ccc(N2CCN(CC(=O)Nc3ccc(C)cc3)CC2)cc1	-	-	-	.	-	-	.
O=C(COC(=O)C1=Cc2ccccc2OC1)NCc1ccco1	.	-	.	.	-	-	.
COc1ccc(C2CC(c3ccccc3)=NN2C(=O)COC(=O)CNC(=O)c2ccccc2)cc1 (configuration not stated)	-	-	-	-	-	-	.
COc1ccc(C2CC(c3ccccc3)=NN2C(=O)COC(=O)/C=C/c2ccc(O)c(OC)c2)cc1 (configuration not stated)	-	-	34	-	-	-	-
Cc1cc(C)c2c(NC(N)=S)n[nH]c2n1	-	-	26	-	-	-	-
Cc1cc2[nH]ncc2cc1NC(N)=S	-	-	-	-	-	-	.
COc1ccc(CSc2nc(O)cc(=O)n2CC(C)C)cc1F	-	-	21	-	-	-	-
CCN(CC(=O)Nc1cc(Cl)ccc1C)C(=O)C1CCN(c2ncnc3sc(C)c(C)c23)CC1	-	-	-	-	-	.	.
O=C(CCCC(=O)NCc1ccccc1)NCc1ccccc1	-	.	-	-	.	-	.
O=C(CCCCCCC(=O)NCc1ccccc1)NCc1ccccc1	-	-	84	-	-	-	-
SMILES	Yeast UUG start	CFTR F508del cor	PglD DTNB	miR122 inh	EWS-Fli block	LGR2 antag	PglD confirm	others
Cc1ccccc1OCCn1cc(C(=S)N2CCN(C)CC2)c2ccccc21	.	-	.	.	-	-	.
C#CCOCCOCCOCCNc1nc(N2CCN(C(=O)CCCCCCCCCCNC(=O)Cn3cc(C[C@@H](C)O)nn3)CC2)nc(N2CCN(C(=O)CCCCCCCCCCNC(=O)[C@H](CO)n3cc(CCCSC)nn3)CC2)n1	-	-	-	-	58	-	.	DNA binding=-
C#CCOCCOCCOCCNc1nc(N2CCN(C(=O)CCCCCCCCCCNC(=O)Cn3cc(C[C@@H](C)O)nn3)CC2)nc(N2CCN(C(=O)CCCCCCCCCCNC(=O)[C@@H](CCC(=O)O)n3cc(CCCCCN)nn3)CC2)n1	-	-	-	-	-	.	.
CC(=O)Nc1sc2c(c1C#N)CC(C)(C)NC2(C)C	-	.	-	-	.	.	.
CN(C)C(=O)c1cccc(-c2ccc(C3[C@@H]4CN(Cc5nccs5)C[C@H]3N4)cc2)c1 (some centres not stated)	.	-	.	.	59!	-	.	DNA binding=-
C[C@H]1CN([C@@H](C)CO)C(=O)Cc2cc(NC(=O)Nc3ccc4c(c3)OCO4)ccc2O[C@@H]1CN(C)C(=O)Nc1ccccc1	-	-	-	-	-	-	.
Cc1noc(C)c1NC(=O)Nc1ccc2c(c1)CC(=O)N([C@H](C)CO)C[C@@H](C)[C@@H](CN(C)Cc1ccc(Cl)c(Cl)c1)O2	-	-	-	-	61	-	.	DNA binding=-
C[C@@H]1CN([C@H](C)CO)C(=O)c2cc(NS(=O)(=O)c3ccc(Cl)cc3)ccc2O[C@@H]1CN(C)Cc1ccc(Cl)c(Cl)c1	-	-	-	-	53	-	.	DNA binding=-
C[C@H]1CN([C@@H](C)CO)C(=O)c2cc(NS(=O)(=O)c3ccc(Cl)cc3)ccc2O[C@H]1CN(C)Cc1ccc(Cl)c(Cl)c1	-	-	-	-	61	-	.	DNA binding=-
Cc1ccccc1NS(=O)(=O)c1nnc(NC(=O)c2ccc(Br)cc2)s1	-	-	-	-	.	-	.
Cc1ccccc1N=Nc1c(O)n(C)c2ccccc12	-	-	-	-	60	-	.	DNA binding=-
Cc1ccc(/C=N/NC(=O)c2n[nH]c3c2CCCC3)cc1	-	-	-	-	-	-	.
C/C(=N\NC(=O)c1n[nH]c2c1CCC2)c1cccs1	-	-	-	.	82	.	.	DNA binding=-
O=C(N/N=C/c1cccs1)c1n[nH]c2c1CCCC2	-	-	-	-	52	76	.	DNA binding=-
Cc1cc(C)n(-c2ccn(Cc3ccc(Cl)cc3Cl)c(=O)n2)n1	-	.	-	-	.	.	.
COc1ccccc1C(=O)NCC(=O)OC(C)C(=O)N1CCOCC1 (configuration not stated)	.	-	.	-	-	-	.
Cc1ccc(C(C(=O)NCc2ccco2)N(C(=O)CNC(=O)c2cccs2)c2c(C)cc(C)cc2C)cc1 (configuration not stated)	-	-	-	-	55	-	.	DNA binding=-
C/C(=N\Nc1cccc2cccnc12)c1ccccn1	.	-	.	.	61	56	.	DNA binding=-
C/C(=N\Nc1cccc2cccnc12)c1ccccc1O	.	-	.	-	-	-	.
